Laboratory results as given in US20260072036A1, “BICYCLONONYNE REAGENTS FOR CELL IMAGING” (The General Hospital Corporation, priority 2022, published 2026).

How the values were obtained:
[1] = Quenching kinetics of FAST-antibodies with BHQ3-Tz
Method: (§1) CP or BCN FAST-labeled antibodies were stored in PBS at 4° C. at concentrations of 5-15 μM after labeling. Disposable polystyrene cuvettes were blocked with 2 mL 1% BSA in PBS which was then removed and replaced with a 0.01% BSA solution in PBS to reduce nonspecific adsorption of the antibodies. Time-based fluorescence acquisitions at the appropriate dye-specific wavelengths were initiated, and the baseline emission of the buffer solutions measured. FAST-labeled antibodies were diluted into the blocked cuvette to a concentration of 4-10 nM and after measuring initial fluorescence, 10-20 μL of either Tz-BHQ3 or Azide-BHQ3 were added via the instrument's sample addition port and data acquisition continued until the quenching reaction was complete.
(§2) Data were analyzed in GraphPad Prism 9 (Graphpad Software). For FAST-labeled antibodies, curves were fitted to a double exponential (two phase) decay with the time of BHQ3 addition set to t=0 for fitting purposes.
The unaccelerated reaction rate of BCN-PEG2-amine with benzylamino-tetrazine was measured on a stopped flow spectrophotometer as previously published (Carlson, J. C. T., et al., Unraveling Tetrazine-Triggered Bioorthogonal Elimination Enables Chemical Tools for Ultrafast Release and Universal Cleavage. J Am Chem Soc 140, 3603-3612 (2018)). Data were analyzed in GraphPad Prism 9 (Graphpad Software) and second order rate constants were calculated from the second order rate equation (Kinetics and Mechanism) using the nonlinear fits of the absorbance vs. time curves.

[2] = Quenching kinetics of FAST-antibodies with Azide-BHQ3
Method: as §1, §2

Row | Substance | reaction rate compared to predicted values ([1]; BHQ3-Tz) | acceleration of the quenching reaction vs predicted kinetics for the Tz reaction alone ([1]; after addition of BHQ3-Tz) | effective second order rate constant ([1]; after addition of BHQ3-Tz) [M⁻¹ s⁻¹] | reaction timeframe, predicted vs accelerated ([2]; 10 μM azide-BHQ3, routine imaging conditions) | effective rate constant for the slow component ([2]; Azide-BHQ3, biphasic process) [M⁻¹ s⁻¹] | acceleration vs underlying azide-alkyne reaction kinetics ([2]; azide-BHQ3) [fold] | reaction rate compared to predicted values ([2]; azide-BHQ3) | expected time for complete reaction at the experimental concentration, predicted vs accelerated ([1]; BHQ3-Tz) | acceleration of the quenching reaction vs predicted kinetics ([1]; after addition of BHQ3-Tz) [×]
1 | cetuximab-BCN-AF647: cetuximab labeled with BCN-AF647 FAST probe | dramatically enhanced reaction rate | about 1400 fold | 4.5e+06 | from one week to two minutes | 6700 | > 5000 | dramatically enhanced reaction rate | – | –
2 | cetuximab-CP-AF647: cetuximab labeled with CP-AF647 FAST probe [reference compound] | – | – | – | – | – | – | – | from months to hours | 500
